Reference: PubChem BioAssay AID2544 (Sanford-Burnham Center for Chemical Genomics, 2010)
The list shows a part of the results, in another mix than the full data. Calls of active or inactive are those of the source.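 Rule for the calls: active = inhibition reaching a set limit with compound at 10 µM in the primary screen (cut at about 35% in these data); inactive = the rest.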

Protein sequences, listed by entry. Tags and fused reporters are not part of them. Lines headed by an entry give the natural chain unless they say otherwise; changes in a name come on top.
UniProt P09923: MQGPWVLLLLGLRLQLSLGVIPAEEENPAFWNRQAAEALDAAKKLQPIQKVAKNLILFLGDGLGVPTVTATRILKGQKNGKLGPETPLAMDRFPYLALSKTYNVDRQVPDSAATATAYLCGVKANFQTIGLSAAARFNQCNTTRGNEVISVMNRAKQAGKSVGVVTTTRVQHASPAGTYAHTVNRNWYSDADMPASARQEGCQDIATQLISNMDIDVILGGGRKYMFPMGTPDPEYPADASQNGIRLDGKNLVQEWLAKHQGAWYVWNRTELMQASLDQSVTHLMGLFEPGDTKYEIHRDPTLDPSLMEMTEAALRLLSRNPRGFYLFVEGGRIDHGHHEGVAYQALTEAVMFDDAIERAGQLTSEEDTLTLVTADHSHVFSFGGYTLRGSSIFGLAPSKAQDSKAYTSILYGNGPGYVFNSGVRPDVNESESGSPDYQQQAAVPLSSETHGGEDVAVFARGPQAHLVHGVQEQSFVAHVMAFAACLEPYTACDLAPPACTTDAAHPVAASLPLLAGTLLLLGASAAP

Molecular target: Intestinal-type alkaline phosphatase (Homo sapiens) (UniProt P09923)
Assay: human IAP inhibitors, primary screen, biochemical, luminescence, uHTS (AID 2544);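 note: plate controls were DMSO wells with enzyme for no effect and no-enzyme buffer wells for full effect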
Settings: purified IAP, CDP-Star luminescence, 30 min; at 10 µM; stronger effect = higher value

Compound | inhibition
CCOP(=O)(NC(=NC(C)c1ccccc1)NC(C)c1ccccc1)OCC (centres undefined) | inactive: -9.2%
Clc1n[nH]nc1-c1nn[nH][15n]1 | inactive: 3.6%
CC(C)(C)C(=O)NC(Sc1ncccn1)C(Cl)(Cl)Cl (centres undefined) | inactive: 0.8%
COc1ccccc1CNC(=O)COC(=O)C(O)(c1ccccc1)c1ccccc1 | inactive: 7.8%
O=[As](O)(c1ccccc1Br)c1ccccc1Br | inactive: -15.9%
CC1(CBr)Cn2c(nc3ccccc3c2=O)S1 (centres undefined) | inactive: 3.4%
CC(C)/C=N\N=C(\N)N[N+](=O)[O-] | inactive: 12.1%
CN(C(=O)Cc1ccc(Cl)c(Cl)c1)[C@@H]1CCCC[C@H]1N1CCCC1 | inactive: -6.6%
Cc1nn(-c2ccccc2)c2c1P(=O)(N1CCOCC1)N(C)C(c1ccccc1)=N2 (centres undefined) | inactive: -1.2%
CC1CCC(C(C)C)C(OP(=O)(Nc2ccccn2)c2ccccc2)C1 (centres undefined) | inactive: 5.2%
Cc1ccc(C(=O)OC2CN3CCC2CC3)cc1 (centres undefined) | inactive: 8.3%
O=C(/C=C/c1ccccc1)OC1CN2CCC1CC2 (centres undefined) | inactive: 4%
CN(C)C1(CNC(=O)c2ccc(S(C)(=O)=O)cc2)CCCCC1 | inactive: -8.2%
O=P1(Nc2ncccn2)COc2ccccc2OC1 | inactive: 6.1%
O=P1(Nc2ccc(Br)cn2)COc2ccccc2OC1 | inactive: -10.7%
NS(=O)(=O)c1cccc(NC(=O)COC(=O)C(O)(c2ccccc2)c2ccccc2)c1 | inactive: -8.8%
O=[As](O)(c1cccs1)c1cccs1 | inactive: -3.9%
Cc1ccc(OCC(=O)OC2CN3CCC2CC3)cc1 (centres undefined) | inactive: -9.4%
Nc1cccc([As](=O)(O)c2ccccc2)c1 | inactive: -12.1%
CCOC(=O)Nc1ccc([As](=O)(O)O)c(O)c1 | inactive: -5.7%

Compound | inhibition
CCCCOc1ccc(C(=O)NCC2(N3CCCCC3)CCCCC2)cc1OC | inactive: -12.2%
Cc1cc(SC(NC(=O)c2ccccc2)C(Cl)(Cl)Cl)nc(C(C)C)n1 (centres undefined) | inactive: 1.7%
CCOC(=O)Nc1cccc([As](=O)(O)O)c1 | inactive: -0.9%
O=P(Nc1ccccn1)(c1cccc2ccccc12)c1cccc2ccccc12 | inactive: 5%
Cc1cc(SC(NC=O)C(Cl)(Cl)Cl)ncn1 (centres undefined) | inactive: -22.3%
COP1(=S)c2c(C)nn(CCC#N)c2N=C(c2ccc(F)cc2)N1C (centres undefined) | inactive: 4.9%
O=C(COc1ccccc1)OC1CN2CCC1CC2 (centres undefined) | inactive: -13.4%
O=C(Nc1ccncc1[N+](=O)[O-])c1ccc([N+](=O)[O-])cc1[N+](=O)[O-] | inactive: -11.9%
CCOC(=O)c1ccc(NC(=O)C(C)(CCl)SC)cc1 (centres undefined) | inactive: 0.1%
O=C(OC1CN2CCC1CC2)c1cccc([N+](=O)[O-])c1 (centres undefined) | inactive: 4.7%
CCC(C)N(CC(C)C)C(=S)SC(NC(C)=O)C(Cl)(Cl)Cl (centres undefined) | inactive: -8.8%
O=C(OC1CN2CCC1CC2)C12CC3CC(CC(C3)C1)C2 (centres undefined) | inactive: 7.9%
Cc1cc(=O)[nH]c(N[N+](=O)[O-])n1 | inactive: -6.3%
Cc1c2c(nc3ccccc13)SC(C(Cl)Cl)C2 (centres undefined) | inactive: 8.5%
COc1ccc2nc(NP(=O)(c3ccccc3)c3ccccc3)sc2c1 | inactive: -9.2%
COc1cc(I)ccc1[As](=O)(O)O | inactive: 11.5%
COc1ccc(N/C(=N/P(=O)(N2CCOCC2)N2CCOCC2)N2CCOCC2)cc1 | inactive: 3.2%
O=[As](O)(c1ccc(O)cc1)c1ccccc1O | inactive: -12.1%
C[As](=O)(O)c1cccc(C(=O)O)c1 | inactive: -2.5%
COc1cc(C(=O)NCC2(N3CCOCC3)CCCCC2)ccc1OCC(C)C | inactive: -11.7%

Compound | inhibition
Cc1ccc2nc3c(c(C)c2c1)CC(C(Cl)Cl)S3 (centres undefined) | inactive: 10.5%
Cc1ccc(OP(=O)(Nc2ccc([N+](=O)[O-])cn2)Oc2ccc(C)cc2)cc1 | inactive: -4.3%
CC(C)c1ccc(OP(=O)(Nc2ccccn2)Oc2ccccc2F)cc1 (centres undefined) | inactive: 9.1%
ClCCSc1nnc(-c2cccnc2)o1 | inactive: 11.7%
O=C(OC1CN2CCC1CC2)c1cccc2[nH]cnc12 (centres undefined) | inactive: -26.7%
CCN(CC)C(=S)SC(NC=O)C(Cl)(Cl)Cl (centres undefined) | inactive: -16.7%
CC(C)NC(=O)NP(=O)(Oc1ccccc1)Oc1ccccc1 | inactive: -2.2%
O=[N+]([O-])c1cc([N+](=O)[O-])c(-c2ccn[nH]2)s1 | inactive: 11%
O=C(O)c1ccccc1[As](=O)(O)O | inactive: 2.8%
CC(=O)Nc1ccc([As](=O)(O)O)cc1 | inactive: 10.8%
O=P(Nc1nc2ccc(Cl)cc2s1)(c1ccccc1)c1ccccc1 | inactive: -21.4%
CCOP(=O)(Nc1ccccc1)OCC | inactive: -5.7%
Cc1cc(SC(NC(=O)c2ccc(F)cc2)C(Cl)(Cl)Cl)ncn1 (centres undefined) | inactive: 9%
Cc1ccc(NP(=O)(Oc2ccccc2F)Oc2ccccc2F)nc1 | inactive: 8.5%
CN(C(=O)Cc1ccc(Cl)c(Cl)c1)[C@H]1CCCC[C@@H]1N1CCCC1 | inactive: -2.5%
O=[N+]([O-])c1cc([N+](=O)[O-])c(CCN2CCOCC2)c([N+](=O)[O-])c1 | inactive: 21.1%
CCN(N=Nc1nonc1N)c1nonc1N | inactive: 2.2%
NC(=O)c1cc([N+](=O)[O-])cc([N+](=O)[O-])c1N | inactive: -7.7%
CN(C(=O)Cc1ccc(Cl)c(Cl)c1)[C@H]1CCCC[C@H]1N1CCCC1 | inactive: 7.8%
